{"source": "patent US20250302983A1", "about": "“Saponin Conjugates” (priority 2018, published 2025)", "key": {"[1]": {"tested_on": "HSP27 mRNA expression in A2058 cells (EGFR−)", "assay": "HSP27 gene silencing activity in A2058 cells", "format": "cell-based, human", "conditions": "titrated + 100 nM cetuximab-(Lys-L-HSP27BNA)^4 (FIG. 9B)", "excerpt": "(§1) Upon release into the cytoplasm the antisense BNA recognizes and binds the mRNA encoding for HSP27, targeting the mRNA for destruction thereby depleting the HSP27 mRNA expression within the cancer cell.\n(§2) RNA from cells was isolated and analysed according to standard protocols (Biorad)"}, "[2]": {"tested_on": "HSP27 mRNA expression in A431 cells (EGFR++)", "assay": "HSP27 gene silencing activity in A431 cells", "format": "cell-based, human", "excerpt": "as §1, §2"}}, "data": [{"substance": "cetuximab-(Cys-L-SO1861)^3,8: cetuximab conjugated via cysteines and labile linker to SO1861, DAR 3,8", "values": [{"measurement": "gene silencing activity", "setting": "[1]", "value": "no gene silencing activity was observed"}, {"measurement": "gene silencing activity", "setting": "[2]; alone (FIG. 9A)", "value": "did not show any gene silencing activity"}, {"measurement": "HSP27 gene silencing", "setting": "[2]; titrated + 100 nM cetuximab-(Lys-L-HSP27BNA)^4", "value": "strong HSP27 gene silencing"}]}]}
